The results in this text go back to PubChem BioAssay AID2648 (Johns Hopkins Ion Channel Center, 2010).

Protein sequences, listed by entry. Tags and fused reporters are not part of them.
UniProt P51787, whole entry: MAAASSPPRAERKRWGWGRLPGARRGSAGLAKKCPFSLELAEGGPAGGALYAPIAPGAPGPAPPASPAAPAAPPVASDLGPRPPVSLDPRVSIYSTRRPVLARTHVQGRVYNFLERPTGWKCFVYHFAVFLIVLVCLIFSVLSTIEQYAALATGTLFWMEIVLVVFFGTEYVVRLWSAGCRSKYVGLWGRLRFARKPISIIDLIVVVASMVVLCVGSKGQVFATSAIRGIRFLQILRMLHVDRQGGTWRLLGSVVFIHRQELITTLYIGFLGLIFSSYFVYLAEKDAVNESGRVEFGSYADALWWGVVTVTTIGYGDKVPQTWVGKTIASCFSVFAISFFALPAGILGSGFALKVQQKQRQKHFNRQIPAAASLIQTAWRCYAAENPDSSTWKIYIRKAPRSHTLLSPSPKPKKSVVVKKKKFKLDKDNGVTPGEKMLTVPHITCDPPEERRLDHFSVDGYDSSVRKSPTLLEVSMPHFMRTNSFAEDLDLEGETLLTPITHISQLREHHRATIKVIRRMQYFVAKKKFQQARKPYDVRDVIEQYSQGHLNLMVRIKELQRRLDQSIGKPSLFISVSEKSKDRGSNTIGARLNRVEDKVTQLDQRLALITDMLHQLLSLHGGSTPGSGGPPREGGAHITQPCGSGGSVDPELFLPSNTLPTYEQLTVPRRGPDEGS

Only a part is listed here, and it is no random draw. The source made the active and inactive calls.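 The calls were made as follows: active = fluorescence ratio B-score, a plate-corrected score, at least three library SD, with initial intensity B-score within 5 SD; inactive = the rest.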

The assay deals with Potassium voltage-gated channel subfamily KQT member 1 (Homo sapiens) (UniProt P51787). In words: potentiators or activators of KCNQ1 channel, primary screen, cell-based, thallium flux, high-throughput (AID 2648). Particulars: CHO-K1 KCNQ1, thallium flux FluxOR fluorescence; at 10 µM.
Turning to `CC(=O)Nc1ccc([As](=O)(O)O)cc1`, the outcome was inactive.
Take `Cc1cc(C)cc(OP(C)(=O)Nc2cccc(C(F)(F)F)c2)c1` (centres undefined): the result was inactive.
The result for `O=P(Nc1nc2ccc(Cl)cc2s1)(c1ccccc1)c1ccccc1` reads “inactive”; that for `Cc1ccc(NP(=O)(Oc2ccccc2F)Oc2ccccc2F)nc1`, “inactive”.
Turning to `CN(C(=O)Cc1ccc(Cl)c(Cl)c1)[C@H]1CCCC[C@@H]1N1CCCC1`, the outcome was inactive.
`COc1ccccc1OP(C)(=O)Nc1ccc(C)c(C)c1` (centres undefined): the outcome was inactive.
For `CCOP(=O)(Nc1ccccc1)OCC`, the result was inactive.
For `Cc1cc(SC(NC(=O)c2ccc(F)cc2)C(Cl)(Cl)Cl)ncn1` (centres undefined), the outcome was inactive.
The result for `COc1ccc(OP(C)(=O)Nc2ccccc2Br)cc1` (centres undefined) reads “inactive”.
The result for `Cc1nc2ccc3ccccc3c2o1.O=[N+]([O-])c1cc([N+](=O)[O-])c(O)c([N+](=O)[O-])c1` reads “inactive”.
The result for `O=[N+]([O-])c1cc([N+](=O)[O-])c(CCN2CCOCC2)c([N+](=O)[O-])c1` reads “inactive”; that for `CCN(N=Nc1nonc1N)c1nonc1N`, “inactive”.
Take `CP(=O)(OCCOc1ccccc1)OCCOc1ccccc1`: the result was inactive.
The result for `CP(=O)(Nc1ccc(Cl)cc1Cl)Oc1ccccc1` (centres undefined) reads “inactive”; that for `Nc1cccc2ccc([As](=O)(O)O)cc12`, “inactive”; that for `NC(=O)c1cc([N+](=O)[O-])cc([N+](=O)[O-])c1N`, “inactive”.
The result for `Cc1ccc(N/C(=N/P(=O)(N2CCOCC2)N2CCOCC2)N2CCOCC2)cc1` reads “inactive”.
To `COc1ccccc1OP(C)(=O)Nc1ccc(Br)cc1` (centres undefined) belongs “inactive”; to `Cc1ccc(OP(=O)(Nc2nccs2)Oc2ccc(C)cc2)cc1`, “inactive”.
With `COc1ccc(OP(C)(=O)Nc2ccccn2)cc1` (centres undefined), the result was inactive.
Regarding `COc1ccccc1OP(=O)(Nc1ccc(C)cn1)Oc1ccccc1OC`, the outcome was inactive.
For the molecule `Clc1ccc(Cl)c(NC2=NCC(CBr)S2)c1` (centres undefined), the result was inactive.
To `CN(C)CCOC(=O)C(O)(c1ccccc1)C1CCCC1` (centres undefined) belongs “inactive”.
To `CN1CCCC(OC(=O)C(c2ccccc2)c2ccccc2)C1` (centres undefined) belongs “inactive”; to `CC(C)CC(=O)NC(Sc1ccc(Cl)cc1)C(Cl)(Cl)Cl` (centres undefined), “inactive”.
The result for `O=[N+]([O-])c1cc([N+](=O)[O-])c(Nc2ccccn2)c([N+](=O)[O-])c1` reads “inactive”; that for `Cc1c(NP(C)(=O)Oc2ccc(C(C)C)cc2)c(=O)n(-c2ccccc2)n1C` (centres undefined), “inactive”.
For the molecule `Nc1cc(N)c2nonc2c1[N+](=O)[O-]`, the result was inactive.
To `Cc1c2non([O-])c-2c(C)[n+](=O)[n+]1[O-]` belongs “inactive”.
The result for `O=C(NC(Sc1ccncn1)C(Cl)(Cl)Cl)c1ccccc1` (centres undefined) reads “inactive”.
To `Oc1ccccc1CNc1ccccn1` belongs “inactive”; to `COc1ccccc1OP(C)(=O)Nc1ccc(C)cc1C` (centres undefined), “inactive”.
`CP(=O)(Nc1ccccn1)Oc1ccccc1` (centres undefined): the outcome was inactive.
The result for `CCc1ccc(OP(C)(=O)O)cc1` reads “inactive”; that for `COc1ccc(C2=NCC(CBr)S2)cc1` (centres undefined), “inactive”.
To `COc1ccc(OP(C)(=O)Nc2ccc(Br)cc2)cc1` (centres undefined) belongs “inactive”; to `CCN(CC)CC(O)COC(=O)C(O)(c1ccccc1)C1CCCCC1` (centres undefined), “inactive”; to `O=C(OCCCN1CCCC1)C(O)(c1ccccc1)C1CCCCC1` (centres undefined), “inactive”.
To `COc1ccccc1OP(C)(=O)Nc1c(C)n(C)n(-c2ccccc2)c1=O` (centres undefined) belongs “inactive”; to `O=[N+]([O-])c1cccc2n[nH]nc12`, “inactive”.
For the molecule `CC(=O)N1C2C3N(C(C)=O)C1C1N(C(C)=O)C(C(N1C(C)=O)N3C(C)=O)N2C(C)=O`, the outcome was inactive.
To `CCc1nc2c(n1)c1c(non1O)c1c2no[n+]1[O-]` belongs “inactive”; to `O=[N+]([O-])c1cc([N+](=O)[O-])c(CCNc2ccccc2)c([N+](=O)[O-])c1`, “inactive”; to `CCc1ccc(OP(C)(=O)Nc2cccnc2)cc1` (centres undefined), “inactive”.
To `Cc1ccc(NP(=O)(Oc2ccccc2)Oc2ccccc2)nc1` belongs “inactive”; to `CP(=O)(Oc1ccccc1)N1CCOC1=O` (centres undefined), “inactive”; to `C[N+]1=C2C=CC=CC=C2SC12C([N+](=O)[O-])=CC([N+](=O)[O-])=C[C-]2[N+](=O)[O-]` (centres undefined), “inactive”.
To `CC(C)(C)c1ccc(OP(C)(=O)O)cc1` belongs “inactive”; to `Nc1ccc([As](=O)(O)c2ccc(N)cc2)cc1`, “inactive”.
On to `COc1ccccc1OP(C)(=O)Nc1ccccc1Br` (centres undefined), for which the result was inactive.
The result for `CP(=O)(Nc1ccc(Cl)cc1)Oc1ccc(F)cc1` (centres undefined) reads “inactive”.
The result for `CCN(/C(=N/P(=O)(N1CCOCC1)N1CCOCC1)N1CCOCC1)c1ccc(OC)cc1` reads “inactive”.
To `CN(C)C(=O)OCCc1n(C)cc[n+]1C` belongs “inactive”.
As to `CN(C)C(=O)c1c([N+](=O)[O-])cc([N+](=O)[O-])cc1[N+](=O)[O-]`, the outcome was inactive.
As for `CC(C)=N/N=C(\N)N[N+](=O)[O-]`, the outcome was inactive.
To `CC1CCN(C(=O)Oc2c(Cl)cc(Cl)c3cccnc23)CC1` belongs “inactive”; to `Nc1ccc2c(ccc3cccnc32)n1.O=[N+]([O-])c1cc([N+](=O)[O-])c(O)c([N+](=O)[O-])c1`, “inactive”.
To `O=C(Nc1cc([As](=O)(O)O)ccc1O)c1ccccc1` belongs “inactive”; to `CCOC(=O)c1ccc(NP(C)(=O)Oc2ccc(Cl)cc2)cc1` (centres undefined), “inactive”; to `CP(=O)(OC12CC3CC(CC(C3)C1)C2)OC12CC3CC(CC(C3)C1)C2`, “inactive”.
As to `CC(C)(C)C(=O)NC(Sc1ccncn1)C(Cl)(Cl)Cl` (centres undefined), the outcome was inactive.
`O=[N+]([O-])c1ncn(CCn2ncnc2[N+](=O)[O-])n1`: the outcome was inactive.
To `O=[N+]([O-])c1cccc(NC2=NCC(CBr)S2)c1` (centres undefined) belongs “inactive”.
To `O=C(O)CNc1ccc([As](=O)(O)O)cc1` belongs “inactive”.
Consider `COc1ccc(OP(C)(=O)Nc2cccc(Br)c2)cc1` (centres undefined), for which the result was inactive.
To `O=P(Nc1ccccn1)(c1ccc(Br)cc1)c1ccc(Br)cc1` belongs “inactive”; to `CN(C)C1(CNC(=O)c2ccc(Cl)c(S(N)(=O)=O)c2)CCCCC1`, “inactive”.
Consider `C[C@H]1OP(=O)(Oc2ccccc2)[C@H](O)[C@H](O)[C@H]1N=[N+]=[N-]` (some centres undefined), for which the result was inactive.
On to `CN(C)CCOC(=O)C(O)(c1ccccc1)C1CCCCC1` (centres undefined), for which the result was inactive.
Turning to `O=P(Nc1nc2ccccc2s1)(c1ccccc1)c1ccccc1`, the result was inactive.
The result for `COc1ccc(NP(C)(=O)Oc2ccccc2OC)cc1` (centres undefined) reads “inactive”; that for `O=[N+]([O-])c1ccc(O)c(/C=N/Nc2ccc([N+](=O)[O-])cc2[N+](=O)[O-])c1`, “inactive”; that for `O=[N+]([O-])c1ncn(CCn2cnc([N+](=O)[O-])n2)n1`, “inactive”.
For the molecule `O=[N+]([O-])c1ccc(OP2(=O)COCCO2)cc1` (centres undefined), the outcome was inactive.
